Values of other authors in US20220170859A1, “PARTICLE LABELING REAGENT, PARTICLE DYEING METHOD, AND MICROSCOPIC SYSTEM” (SONY GROUP CORPORATION, priority 2019, published 2022).

The chains behind the UniProt entries cited, without tags or fusion partners. Residues count along the entry.
UniProt P02701, 25-152 limits assumed: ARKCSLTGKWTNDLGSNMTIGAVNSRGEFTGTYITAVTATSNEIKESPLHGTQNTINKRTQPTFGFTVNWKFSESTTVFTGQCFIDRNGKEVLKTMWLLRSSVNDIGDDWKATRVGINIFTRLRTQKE

Target: avidin (Gallus gallus, UniProt P02701)
Settings: read-out: Dissociation constant; complex with avidin; cited from earlier work

O=C(O)c1ccccc1N=Nc1ccc(O)cc1
Kd: 5.8 µM
